Reference: ChEMBL document CHEMBL3734654, “Mutational mapping of the transmembrane binding site of the G-protein coupled receptor TGR5 and binding mode prediction of TGR5 agonists” (Eur J Med Chem, 2015)

How the values were obtained:
Type in all cases: functional, cell-based
[1] = tested on: T1, G-protein coupled bile acid receptor 1 (Homo sapiens), Q8TDU6 [E169A]; test: Agonist activity at human TGR5 E169A mutant expressed in HEK293 cells assessed as rise in intracellular cAMP level at 0.1 to 2.5 uM incubated for 16 hrs by luciferase reporter gene assay
T1 sequence (whole entry): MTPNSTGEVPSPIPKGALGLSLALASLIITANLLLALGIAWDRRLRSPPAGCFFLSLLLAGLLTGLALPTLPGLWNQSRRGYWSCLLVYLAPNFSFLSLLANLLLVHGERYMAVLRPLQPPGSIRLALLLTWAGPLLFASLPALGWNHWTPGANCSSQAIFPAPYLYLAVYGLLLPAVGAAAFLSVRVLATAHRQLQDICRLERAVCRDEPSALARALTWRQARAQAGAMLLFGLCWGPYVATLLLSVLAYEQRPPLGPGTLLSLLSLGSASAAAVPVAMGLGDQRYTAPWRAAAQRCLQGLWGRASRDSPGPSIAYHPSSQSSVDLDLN

[2] = tested on: T2, G-protein coupled bile acid receptor 1 (Homo sapiens), Q8TDU6 [S21A]; test: Agonist activity at human TGR5 S21A mutant expressed in HEK293 cells assessed as rise in intracellular cAMP level at 10 uM incubated for 16 hrs by luciferase reporter gene assay relative to wildtype
T2 sequence (whole entry): T1 sequence (whole entry) with S21A, A169E

[3] = tested on: T3, G-protein coupled bile acid receptor 1 (Homo sapiens), Q8TDU6 [L244A]; test: Agonist activity at human TGR5 L244A mutant expressed in HEK293 cells assessed as rise in intracellular cAMP level at 10 uM incubated for 16 hrs by luciferase reporter gene assay relative to wildtype
T3 sequence (whole entry): T1 sequence (whole entry) with A169E, L244A

[4] = tested on: T4, G-protein coupled bile acid receptor 1 (Homo sapiens), Q8TDU6 [R79A]; test: Agonist activity at human TGR5 R79A mutant expressed in HEK293 cells assessed as rise in intracellular cAMP level at 10 uM incubated for 16 hrs by luciferase reporter gene assay relative to wildtype
T4 sequence (whole entry): T1 sequence (whole entry) with R79A, A169E

[5] = tested on: T5, G-protein coupled bile acid receptor 1 (Homo sapiens), Q8TDU6 [Y89A]; test: Agonist activity at human TGR5 Y89A mutant expressed in HEK293 cells assessed as rise in intracellular cAMP level at 10 uM incubated for 16 hrs by luciferase reporter gene assay relative to wildtype
T5 sequence (whole entry): T1 sequence (whole entry) with Y89A, A169E

[6] = tested on: T6, G-protein coupled bile acid receptor 1 (Homo sapiens), Q8TDU6 [N93A]; test: Agonist activity at human TGR5 N93A mutant expressed in HEK293 cells assessed as rise in intracellular cAMP level at 10 uM incubated for 16 hrs by luciferase reporter gene assay relative to wildtype
T6 sequence (whole entry): T1 sequence (whole entry) with N93A, A169E

[7] = tested on: T7, G-protein coupled bile acid receptor 1 (Homo sapiens), Q8TDU6 [Y240F]; test: Agonist activity at human TGR5 Y240F mutant expressed in HEK293 cells assessed as rise in intracellular cAMP level at 10 uM incubated for 16 hrs by luciferase reporter gene assay relative to wildtype
T7 sequence (whole entry): T1 sequence (whole entry) with A169E, Y240F

[8] = tested on: T8, G-protein coupled bile acid receptor 1 (Homo sapiens), Q8TDU6 [S270A]; test: Agonist activity at human TGR5 S270A mutant expressed in HEK293 cells assessed as rise in intracellular cAMP level at 10 uM incubated for 16 hrs by luciferase reporter gene assay relative to wildtype
T8 sequence (whole entry): T1 sequence (whole entry) with A169E, S270A

[9] = tested on: T3, G-protein coupled bile acid receptor 1 (Homo sapiens), Q8TDU6 [L244A]; test: Agonist activity at human TGR5 L244A mutant expressed in HEK293 cells assessed as rise in intracellular cAMP level incubated for 16 hrs by luciferase reporter gene assay
[10] = tested on: T3, G-protein coupled bile acid receptor 1 (Homo sapiens), Q8TDU6 [L244A]; test: Agonist activity at human TGR5 L244A mutant expressed in HEK293 cells assessed as reduction in forskolin-induced intracellular cAMP level incubated for 16 hrs by luciferase reporter gene assay
[11] = tested on: T9, G-protein coupled bile acid receptor 1 (Homo sapiens), Q8TDU6 [Y240A]; test: Agonist activity at human TGR5 Y240A mutant expressed in HEK293 cells assessed as reduction in forskolin-induced intracellular cAMP level incubated for 16 hrs by luciferase reporter gene assay
T9 sequence (whole entry): T1 sequence (whole entry) with A169E, Y240A

[12] = tested on: T6, G-protein coupled bile acid receptor 1 (Homo sapiens), Q8TDU6 [N93A]; test: Agonist activity at human TGR5 N93A mutant expressed in HEK293 cells assessed as reduction in forskolin-induced intracellular cAMP level at 0.1 to 10 uM incubated for 16 hrs by luciferase reporter gene assay
[13] = tested on: T8, G-protein coupled bile acid receptor 1 (Homo sapiens), Q8TDU6 [S270A]; test: Agonist activity at human TGR5 S270A mutant expressed in HEK293 cells assessed as rise in intracellular cAMP level incubated for 16 hrs by luciferase reporter gene assay
[14] = tested on: T4, G-protein coupled bile acid receptor 1 (Homo sapiens), Q8TDU6 [R79A]; test: Agonist activity at human TGR5 R79A mutant expressed in HEK293 cells assessed as rise in intracellular cAMP level incubated for 16 hrs by luciferase reporter gene assay
[15] = tested on: T7, G-protein coupled bile acid receptor 1 (Homo sapiens), Q8TDU6 [Y240F]; test: Agonist activity at human TGR5 Y240F mutant expressed in HEK293 cells assessed as reduction in forskolin-induced intracellular cAMP level incubated for 16 hrs by luciferase reporter gene assay
[16] = tested on: T5, G-protein coupled bile acid receptor 1 (Homo sapiens), Q8TDU6 [Y89A]; test: Agonist activity at human TGR5 Y89A mutant expressed in HEK293 cells assessed as rise in intracellular cAMP level at 100 uM incubated for 16 hrs by luciferase reporter gene assay relative to wildtype
[17] = tested on: T5, G-protein coupled bile acid receptor 1 (Homo sapiens), Q8TDU6 [Y89A]; test: Agonist activity at human TGR5 Y89A mutant expressed in HEK293 cells assessed as rise in intracellular cAMP level at 50 uM incubated for 16 hrs by luciferase reporter gene assay relative to wildtype

## C[C@H](CCC(=O)NCCS(=O)(=O)O)[C@H]1CC[C@H]2[C@@H]3CC[C@@H]4C[C@H](O)CC[C@]4(C)[C@H]3C[C@H](O)[C@]12C
[1]
  Activity: inactive
[2]
  Activity: 104%
[3]
  Activity: 57%
[4]
  Activity: 65%
[5]
  Activity: 117%
[6]
  Activity: 12%
[7]
  Activity: 17%
[8]
  Activity: 81%
[9]
  Activity: Dose-dependent effect
[10]
  Activity: Active
[11]
  Activity: Active
[12]
  Activity: inactive
[13]
  Activity: Dose-dependent effect
[14]
  Activity: Dose-dependent effect
[15]
  Activity: Active

## C[C@H](CCC(=O)NCCS(=O)(=O)O)[C@H]1CC[C@H]2[C@@H]3[C@@H](O)C[C@@H]4C[C@H](O)CC[C@]4(C)[C@H]3CC[C@]12C
[16]
  Activity: 39%

## C[C@H](CCC(=O)NCCS(=O)(=O)O)[C@H]1CC[C@H]2[C@@H]3[C@H](O)C[C@@H]4C[C@H](O)CC[C@]4(C)[C@H]3CC[C@]12C
[17]
  Activity: 92%

Positions count from the first letter of the chain named. The source made the active and inactive calls. The rule behind the calls is not given here.
